Marks after values point to notes of the source that are not given here.
How the values were obtained:
[1] = Multiple-ascending dose trial of Compound 1 in healthy participants: safety and PK; assay type: in vivo, human; conditions: mean (CV %)
Description: A multiple-ascending dose clinical trial of Compound 1 was performed. 3 groups of 8 healthy participants were randomized to receive multiple once daily (QD) doses of Compound 1 or matching placebo in a 3:1 ratio for 7 days (1 mg and 4 mg) or 14 days (10 mg). Plasma levels of Compound 1 and PD biomarkers (plasma amine oxidase activity and methylamine levels) were determined at pre-dose and various timepoints post-dose.

VAP-1 = molecular target: T1, VAP-1 (Homo sapiens, UniProt Q16853); test: Compound 1 10 mg QD for 12 weeks in adults with non-cirrhotic NASH phenotype; assay type: in vivo
T1 construct: from tissue; host or cells: plasma of trial patients
T1 sequence (Q16853 29-763 limits assumed): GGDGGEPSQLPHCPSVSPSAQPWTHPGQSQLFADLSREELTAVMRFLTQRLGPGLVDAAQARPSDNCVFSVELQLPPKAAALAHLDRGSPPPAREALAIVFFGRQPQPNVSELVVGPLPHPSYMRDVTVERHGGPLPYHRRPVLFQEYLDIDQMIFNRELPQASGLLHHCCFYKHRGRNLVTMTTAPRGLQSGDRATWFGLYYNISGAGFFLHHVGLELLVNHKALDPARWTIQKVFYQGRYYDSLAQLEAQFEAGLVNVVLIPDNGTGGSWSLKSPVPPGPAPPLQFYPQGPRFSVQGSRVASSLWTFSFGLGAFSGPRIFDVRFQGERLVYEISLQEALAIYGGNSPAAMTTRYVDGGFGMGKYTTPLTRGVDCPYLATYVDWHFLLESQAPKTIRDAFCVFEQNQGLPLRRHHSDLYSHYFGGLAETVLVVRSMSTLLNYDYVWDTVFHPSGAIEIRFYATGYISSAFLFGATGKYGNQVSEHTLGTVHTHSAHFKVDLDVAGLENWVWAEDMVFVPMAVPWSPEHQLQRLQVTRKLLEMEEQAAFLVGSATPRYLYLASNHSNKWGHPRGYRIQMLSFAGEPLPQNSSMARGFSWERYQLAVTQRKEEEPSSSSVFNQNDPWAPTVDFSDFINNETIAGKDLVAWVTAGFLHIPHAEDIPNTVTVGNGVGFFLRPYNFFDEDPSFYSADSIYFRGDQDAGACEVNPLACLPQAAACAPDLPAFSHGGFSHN
Description: Part 1 of the two-part trial was a double-blind, placebo-controlled study in 30 adults with non-cirrhotic NASH phenotype evaluating 10 mg Compound 1 once daily (QD) for 12 weeks followed by off-treatment evaluation at week 16 (FIG. 28). Part 1 interim analysis primary endpoint was safety assessed by adverse events (AEs) and laboratory tests; percent change from baseline (BL) in plasma VAP-1 activity was a secondary endpoint. Exploratory imaging and blood-based biomarkers of liver inflammation and fibrosis were also assessed. Analyses of change (or percent change) from baseline used an ANCOVA model with change (or percent change) from baseline as the dependent variable including treatment group and randomization strata as fixed effects and baseline as a covariate.

[2] = tested on: rat CDHFD+NaNO2 NASH model; test: Rat CDHFD+NaNO2 NASH model, liver RNAseq; assay type: in vivo; conditions: 8 wk, Compound 1 25 mg/kg, Compound 3 3 mg/kg
Description: Animal handling: After arrival, the rats were left for a 2-week acclimation period, during which they were accustomed to the animal facility staff and trained on the procedure of oral gavage. After 2 weeks the animals were put on CHDFD (choline deficient high fat diet) and pre-fed for 4 weeks. Then the rats were started on treatment with test compounds, and 3× per week i.p. NaNO2 injections, while they remained on CDHFD, for an additional 8 weeks. NaNO2 was administered at 25 mg/kg i.p. dissolved in PBS 3 times a week (on Mondays, Wednesdays, and Fridays) for 8 weeks while on CDHFD.
(§1) Final Sacrifice: Half of the animals of each treatment group were terminated on day 84. The other half of the animals in each group were terminated on the following day, day 85. On the day of sacrifice the animals were fasted for 2 h and received a final treatment with the respective test substance. After the final compound treatment, the animals had no more access to food until sacrifice. At 4 h after the last administration all animals were sacrificed and livers were sampled for further analysis.
Animal handling: After arrival, the rats were left for a 2-week acclimation period, during which they were accustomed to the animal facility staff and trained on the procedure of oral gavage. After 2 weeks the animals were placed on a choline deficient high fat diet (CDHFD) and pre-fed for 4 weeks to induce steatosis and a NASH-like disease phenotype. Rats were then treated with test compounds for an additional 8 weeks while on CDHFD. Concomitant with compound treatment, rats were administered sodium nitrite (NaNO2, 25 mg/kg dissolved in PBS) by triweekly intraperitoneal (IP) injection to induce liver fibrosis.
as §1, with “2 hours” for “2 h”, “4 hours” for “4 h”
Sampling and analysis: Small liver pieces were harvested into RNAlater (Thermo Fisher Scientific Dreieich Germany) and stored at −20° C. prior to RNA sequencing (RNAseq) at MedGenome Inc. RNAseq analysis was performed on liver tissue by Illumina sequencing using standard methodologies. Briefly, RNAseq libraries (n=5 per group) were generated using Illumina Truseq stranded mRNA kits and sequencing was performed on a NovaSeq 6000 sequencer. Alignment was performed using STAR (v2.7.3a) aligner and reads mapping to ribosomal and mitochondrial genome were removed prior to alignment. Raw read counts were estimated using HTSeq (v0.11.1) and normalized using DESeq2 (v2.22.2). Differentially expressed genes (DEGs) were determined using DESeq2 (R Bioconductor package).

ICAM-1 decrease relative to BL, mean (±SE) (VAP-1; Week 8, p=0.0313 vs placebo): 34.85 (56.03) μg/L
TIMP-1 decrease relative to BL, mean (±SE) (VAP-1; Week 12, p<0.05 vs placebo): 29.58 (9.26) ng/mL
VCAM-1 decrease relative to BL (VAP-1; Week 12, p=0.0245 vs placebo): 24.327 (20.5850) μg/L
SMILES: COC1CCN(c2ncc(OC/C(=C/F)CN)cn2)CC1 [Compound 1, (E)-3-fluoro-2-(((2-(4-methoxypiperidin-1-yl)pyrimidin-5-yl)oxy)methyl)prop-2-en-1-amine]
AR (Cmax), accumulation ratio between Day 1 and Last Day ([1]; 1 mg QD 7 days): 5.98 (49)
AR (AUC), accumulation ratio between Day 1 and Last Day ([1]; 4 mg QD 7 days): 11.7 (22)
AR (Cmax), accumulation ratio between Day 1 and Last Day ([1]; 4 mg QD 7 days): 4.32 (34)
AR (AUC), accumulation ratio between Day 1 and Last Day ([1]; 10 mg QD 14 days): 8.2 (63)
AR (Cmax), accumulation ratio between Day 1 and Last Day ([1]; 10 mg QD 14 days): 3.35 (57)
Fabp2 differential gene expression relative to vehicle control [2]: −1.02* log2-fold change
Irs1 differential gene expression relative to vehicle control [2]: 0.26 log2-fold change
Irs2 differential gene expression relative to vehicle control [2]: 0.13 log2-fold change
Ldlr differential gene expression relative to vehicle control [2]: 0.41* log2-fold change
Ldlrap1 differential gene expression relative to vehicle control [2]: 0.38* log2-fold change
Lrp1 differential gene expression relative to vehicle control [2]: 0.25 log2-fold change
Lrp2 differential gene expression relative to vehicle control [2]: 0.08 log2-fold change
Ppara differential gene expression relative to vehicle control [2]: 0.32 log2-fold change
Ppargcla differential gene expression relative to vehicle control [2]: 0.51* log2-fold change
Rxra differential gene expression relative to vehicle control [2]: 0.51 log2-fold change
Slc27a1 differential gene expression relative to vehicle control [2]: 0.33 log2-fold change
Slc27a5 differential gene expression relative to vehicle control [2]: 0.68* log2-fold change
Vegfa differential gene expression relative to vehicle control [2]: 0.23 log2-fold change
Vegfc differential gene expression relative to vehicle control [2]: −0.45* log2-fold change
Vldlr differential gene expression relative to vehicle control [2]: −1.6* log2-fold change

From patent publication US20230241071A1, “COMBINATION TREATMENT OF LIVER DISORDERS” (Terns Pharmaceuticals, Inc., priority 2021, published 2023)
